Values quoted from earlier work as cited in patent US20090035385A1, “COMPOSITIONS INCLUDING IRON” (DRUGTECH CORPORATION, priority 2004, published 2009).

Conditions: cited from earlier work

Substance: ferrous sulfate
- average iron absorption rate (days 21 through 30 of daily iron supplementation, published data): 5.1%
- average iron absorption rate (iron supplementation days 1 through 20, conventionally accepted): 15%

Like-named read-outs stand apart in the source and are kept apart here.
